This data set deals with Caco-2 cells. Nature of the data set: Cellular accumulation on Caco-2 cell monolayers. Conditions: 30 min incubation, Fig. 3.

For the substance “biotin-ricinoleicacid-acyclovir [B-R-ACV]”, the “increase in the uptake compared to ACV” value is recorded as 10 times.

For the origin of these results see PMC3401275 (International Journal of Pharmaceutics, 2012).
